Molecular target: KCC2 (Homo sapiens, UniProt Q9H2X9)
Experiment: Cellular thermal shift assay (CETSA) in transfected HEK-293 cells
Type: binding
Settings: 30 μM, 90 min, heated 37-58° C.

Chains of the proteins cited; added tags and fusions are not shown. Residues count along the entry.
UniProt Q9H2X9, 1-1116 isoform 2: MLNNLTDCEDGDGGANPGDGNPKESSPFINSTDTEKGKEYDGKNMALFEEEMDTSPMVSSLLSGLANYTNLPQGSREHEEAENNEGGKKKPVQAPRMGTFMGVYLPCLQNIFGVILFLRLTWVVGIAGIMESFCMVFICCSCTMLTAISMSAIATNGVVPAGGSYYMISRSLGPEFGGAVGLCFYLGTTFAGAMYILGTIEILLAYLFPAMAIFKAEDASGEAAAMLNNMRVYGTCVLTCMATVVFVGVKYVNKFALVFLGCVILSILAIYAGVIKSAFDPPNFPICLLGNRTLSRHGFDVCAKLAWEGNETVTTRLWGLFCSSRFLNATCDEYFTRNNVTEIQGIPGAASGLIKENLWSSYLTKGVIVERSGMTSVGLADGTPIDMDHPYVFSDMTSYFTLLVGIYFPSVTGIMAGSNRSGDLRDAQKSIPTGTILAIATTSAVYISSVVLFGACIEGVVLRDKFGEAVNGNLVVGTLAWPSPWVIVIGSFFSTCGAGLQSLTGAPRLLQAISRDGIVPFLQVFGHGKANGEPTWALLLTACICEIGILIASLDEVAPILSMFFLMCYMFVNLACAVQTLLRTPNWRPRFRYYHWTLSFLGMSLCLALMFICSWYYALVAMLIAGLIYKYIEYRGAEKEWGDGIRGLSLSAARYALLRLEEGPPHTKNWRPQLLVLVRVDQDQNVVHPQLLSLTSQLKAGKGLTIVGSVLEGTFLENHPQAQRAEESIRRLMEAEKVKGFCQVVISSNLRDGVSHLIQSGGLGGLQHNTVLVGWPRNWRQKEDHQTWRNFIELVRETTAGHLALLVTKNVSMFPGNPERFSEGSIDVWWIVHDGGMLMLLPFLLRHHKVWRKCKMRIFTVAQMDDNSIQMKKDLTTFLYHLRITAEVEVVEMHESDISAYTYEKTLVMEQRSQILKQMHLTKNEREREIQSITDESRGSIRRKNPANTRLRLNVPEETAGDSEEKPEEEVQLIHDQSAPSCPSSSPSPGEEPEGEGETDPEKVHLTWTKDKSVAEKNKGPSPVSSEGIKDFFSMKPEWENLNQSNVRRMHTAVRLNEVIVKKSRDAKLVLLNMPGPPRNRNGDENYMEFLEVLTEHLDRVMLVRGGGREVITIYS

thermal stability of KCC2 / direct binding (CETSA): reduced the thermal stability of KCC2
Compound: CC(C)N1Cc2c(Nc3ccc(C4CCCCC4)cc3)nc(N3CCOCC3)nc2C1=O

— US20250281497A1, “FUSED AMINO PYRIMIDINE COMPOUNDS FOR TREATMENT OF SEIZURE DISORDERS” (Ovid Therapeutics Inc., priority 2024, published 2025)
